From US7030242B2, “Selective inhibition of aggrecanase in osteoarthritis treatment” (Pfizer Inc, priority 1999, dated 2006)
pIC50: −log10 of the molar value.

biological target: T1, Human recombinant collagenase-1 (Homo sapiens, UniProt P03956); assay: Inhibition of human collagenase-1 (recombinant collagenase-1 assay); assay type: biochemical; settings: Table 2, read-out: MMP-1 (IC50 class)
T1 sequence (P03956 100-469): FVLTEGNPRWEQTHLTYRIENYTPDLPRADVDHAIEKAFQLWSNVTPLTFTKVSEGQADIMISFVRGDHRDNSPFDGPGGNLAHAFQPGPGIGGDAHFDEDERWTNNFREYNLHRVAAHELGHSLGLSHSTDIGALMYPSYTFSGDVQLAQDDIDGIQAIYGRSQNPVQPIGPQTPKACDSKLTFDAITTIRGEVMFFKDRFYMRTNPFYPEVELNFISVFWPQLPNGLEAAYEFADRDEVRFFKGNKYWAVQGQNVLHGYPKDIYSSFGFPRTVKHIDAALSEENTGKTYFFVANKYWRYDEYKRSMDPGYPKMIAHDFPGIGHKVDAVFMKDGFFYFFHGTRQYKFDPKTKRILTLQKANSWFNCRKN

pIC50, 6.00 to 6.70:
Cc1ccc(F)cc1COc1ccc(S(=O)(=O)N2CCC[C@@](C)(O)[C@@H]2C(=O)NO)cc1 [(2R,3R) 1-[4-(2-methyl-5-fluorobenzyloxy)-benzenesulfonyl]-3-hydroxy-3-methyl-piperidine-2-carboxylic acidhydroxyamide]
Cc1cc(F)ccc1COc1ccc(S(=O)(=O)N2CCC[C@@](C)(O)[C@@H]2C(=O)NO)cc1 [(2R,3R) 1-[4-(4-fluoro-2-methyl-benzyloxy)-benzenesulfonyl]-3-hydroxy-3-methyl-piperidine-2-carboxylic acidhydroxyamide]
C[C@@]1(O)CCCN(S(=O)(=O)c2ccc(OCc3ccccc3Cl)cc2)[C@H]1C(=O)NO [(2R,3R) 1-[4-(2-chloro-benzyloxy)-benzenesulfonyl]-3-hydroxy-3-methyl-piperidine-2-carboxylic acidhydroxyamide]
